IC50 data for 1 molecule are collected here from ChEMBL document CHEMBL1142268, “Histone deacetylase inhibitors: from bench to clinic” (J Med Chem, 2008).

The target in this experiment is T1, Protein deacetylase HDAC6 (Homo sapiens, UniProt Q9UBN7).
T1 sequence (Q9UBN7 whole entry): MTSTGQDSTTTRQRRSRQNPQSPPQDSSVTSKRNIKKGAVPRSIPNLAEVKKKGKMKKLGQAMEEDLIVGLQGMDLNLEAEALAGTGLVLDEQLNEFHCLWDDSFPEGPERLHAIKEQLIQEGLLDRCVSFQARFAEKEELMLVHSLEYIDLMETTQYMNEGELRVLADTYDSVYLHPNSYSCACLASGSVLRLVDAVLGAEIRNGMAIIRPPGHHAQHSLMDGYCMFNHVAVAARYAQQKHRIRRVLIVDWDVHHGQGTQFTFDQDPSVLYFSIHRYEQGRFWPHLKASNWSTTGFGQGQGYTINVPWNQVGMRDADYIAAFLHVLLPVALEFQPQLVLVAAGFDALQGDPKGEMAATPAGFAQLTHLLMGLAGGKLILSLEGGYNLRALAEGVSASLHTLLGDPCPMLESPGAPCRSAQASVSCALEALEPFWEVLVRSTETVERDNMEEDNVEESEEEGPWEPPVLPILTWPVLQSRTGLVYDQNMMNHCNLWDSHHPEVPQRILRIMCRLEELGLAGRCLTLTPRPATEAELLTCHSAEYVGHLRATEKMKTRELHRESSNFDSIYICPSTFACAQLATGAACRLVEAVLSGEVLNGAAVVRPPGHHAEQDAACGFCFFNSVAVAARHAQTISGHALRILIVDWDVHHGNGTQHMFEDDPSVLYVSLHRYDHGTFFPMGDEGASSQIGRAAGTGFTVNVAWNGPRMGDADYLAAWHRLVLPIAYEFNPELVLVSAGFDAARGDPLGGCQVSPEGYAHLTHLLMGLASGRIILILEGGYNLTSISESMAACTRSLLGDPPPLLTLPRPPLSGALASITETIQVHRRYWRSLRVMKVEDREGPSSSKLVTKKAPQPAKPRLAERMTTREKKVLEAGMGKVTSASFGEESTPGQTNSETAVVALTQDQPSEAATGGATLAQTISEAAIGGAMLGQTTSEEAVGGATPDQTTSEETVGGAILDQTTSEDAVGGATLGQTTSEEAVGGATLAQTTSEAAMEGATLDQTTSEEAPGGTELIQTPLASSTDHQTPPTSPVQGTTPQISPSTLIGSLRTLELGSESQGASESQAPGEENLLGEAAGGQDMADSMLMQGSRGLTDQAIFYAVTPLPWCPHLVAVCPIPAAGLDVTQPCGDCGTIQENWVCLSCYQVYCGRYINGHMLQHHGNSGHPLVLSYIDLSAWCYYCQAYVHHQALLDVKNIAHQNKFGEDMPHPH

A value given as a limit tells only on which side of the number the result lay.

By IC50 is commonly meant the concentration that inhibits the measured activity by half. As for `CC(=O)Nc1ccc(C(=O)Nc2cc(-c3cccs3)ccc2N)cc1`, the concentration for half-maximal inhibition (IC50) was over 20 µM.
